Source: patent publication US4966916A (priority 1989, dated 1990)

Test system: rats
Experiment: prostration after administration into the fourth ventricle (Example 1)
Type: in vivo, rat

Row | Structure (SMILES) | prostration / psychotropic activity (intraventricular) | Prostration EC50 (fourth ventricle, Table 2)
1 | CC(=O)OCC[N+](C)(C)C | inactive | 
2 | C[N+](C)(C)CCCCCC[N+](C)(C)C [hexamethonium] |  | IA
